According to patent publication US10953037B2, “Chondroitin sulfate derivative and agent for treating bladder diseases” (priority 2015, dated 2021):
Where “and” joins values, the source holds several entries; their conditions need not be identical. Equal values may be shown once. Read-outs that look alike come from different tables or passages of the source.

What was measured:
[1] = rat, in vivo
[2] = for Drug release ratio: 5 mg/10 mL; for Release rate, comparison among the tested derivatives (in words): both pH 7.4 and pH 8.0, 36° C.; for Release Rate (%/day): over 1 week
[3] = Test Example B3: body weight change (systemic adverse side effects); conditions: rat, in vivo
Procedure: Body weight changes were determined by measuring body weight four times, namely before surgery, after surgery and immediately before the induction with hydrochloric acid, immediately before administering the test substance (before agent administration), and immediately before measurement of intravesical pressure (cystometry), and are indicated as relative values based on a value of 100% for the body weight prior to surgery for each animal.
Furthermore, changes in body weight were measured under the same conditions as in Test Example B2.
Mean±standard error (number of animals per group: 5 to 8)

[4] = borate buffer pH 8.0, 36° C., elapsed time 0 days
[5] = borate buffer pH 8.0, 36° C., elapsed time 1 day
[6] = borate buffer pH 8.0, 36° C., elapsed time 2 days
[7] = borate buffer pH 8.0, 36° C., elapsed time 3 days
[8] = borate buffer pH 8.0, 36° C., elapsed time 4 days
[9] = borate buffer pH 8.0, 36° C., elapsed time 5 days
[10] = borate buffer pH 8.0, 36° C., elapsed time 6 days
[11] = borate buffer pH 8.0, 36° C., elapsed time 7 days
[12] = phosphate buffer pH 7.4, 36° C., elapsed time 0 days
[13] = phosphate buffer pH 7.4, 36° C., elapsed time 1 day
[14] = phosphate buffer pH 7.4, 36° C., elapsed time 2 days
[15] = phosphate buffer pH 7.4, 36° C., elapsed time 3 days
[16] = phosphate buffer pH 7.4, 36° C., elapsed time 4 days
[17] = phosphate buffer pH 7.4, 36° C., elapsed time 5 days
[18] = phosphate buffer pH 7.4, 36° C., elapsed time 6 days
[19] = phosphate buffer pH 7.4, 36° C., elapsed time 7 days
[20] = phosphate buffer pH 7.4, 36° C.

Substance | Body weight, Before Surgery (%) [1] | Drug release ratio [2, 4] | Drug release ratio [2, 5] | Drug release ratio [2, 6] | Drug release ratio [2, 7] | Drug release ratio [2, 8] | Drug release ratio [2, 9] | Drug release ratio [2, 10] | Drug release ratio [2, 11] | Release rate, comparison among the tested derivatives (in words) [2] | Drug release ratio [2, 12] | Drug release ratio [2, 13] | Drug release ratio [2, 14] | Drug release ratio [2, 15] | Drug release ratio [2, 16] | Drug release ratio [2, 17] | Drug release ratio [2, 18] | Drug release ratio [2, 19] | Release Rate (%/day) [2, 20] | Release Rate (%/day) ([2]; borate buffer pH 8.0, 36° C.) | other results
CS introduced with 21-Glycyl-Triamcinolone Acetonide [CS-Gly-TA] | 100.0 ± 0.0% | 0.0% | 13.1% | 23.2% | 32.0% | 39.0% | 44.7% | 49.2% | 53.9% | release rate was the highest | 0.0% | 5.3% | 10.1% | 15.0% | 19.4% | 23.8% | 28.0% | 31.5% | 4.5%/day | – | Body weight, Before agent administration (%) [1]: 96.7 ± 1.2%; Body weight, Before cystometry (%) [1]: 89.0 ± 1.7%; Body weight, Before induction with hydrochloric acid (%) [1]: 101.4 ± 0.7%; Weight loss in comparison with prior to agent administration (in words) [1]: prominent weight loss was only observed; Wet thymus weight [1]: significant decreases in wet thymus weight were only observed
CS introduced with 21-β-Alanyl-Prednisolone [CS-βAla-PRED] | – | 0.6% | 7.0% | 12.5% | 17.8% | 22.5% | 27.3% | 31.6% | 35.1% | highest release rate | 0.6% | 3.5% | 5.6% | 7.8% | 10.0% | 12.0% | 14.3% | 16.2% | 2.2%/day | 4.9%/day | –
CS introduced with 21-β-Alanyl-Betamethasone [CS-βAla-BTM] | – | 0.6% | 2.9% | 4.8% | 6.7% | 9.4% | 11.4% | 13.2% | 15.0% | roughly equal | 0.5% | 1.2% | 1.7% | 2.4% | 3.2% | 3.8% | 4.4% | 5.0% | 0.7%/day | 2.1%/day | Body weight, Before Surgery (%) [3]: 100.0 ± 0.0%; Body weight, Before agent administration (%) [3]: 99.5 ± 1.3%; Body weight, Before cystometry (%) [3]: 101.7 ± 1.3%; Body weight, Before induction with hydrochloric acid (%) [3]: 102.5 ± 1.6%
CS introduced with 21-β-Alanyl-Triamcinolone Acetonide [CS-βAla-TA] | 100.0 ± 0.0% | 1.3% and 0.0% | 2.7% and 1.0% | 4.2% and 2.4% | 5.7% and 3.7% | 7.4% and 5.0% | 8.6% and 6.4% | 10.0% and 7.8% | 11.3% and 9.0% | – | 1.3% and 0.0% | – | – | 3.7% and 1.3% | 4.5% and 1.8% | 5.0% and 2.3% | 5.9% and 2.8% | 6.7% and 3.4% | 0.8%/day and 0.5%/day | 1.4%/day and 1.3%/day | Body weight, Before agent administration (%) [1]: 96.9 ± 1.3%; Body weight, Before cystometry (%) [1]: 97.8 ± 1.5%; Body weight, Before induction with hydrochloric acid (%) [1]: 100.8 ± 1.1%; Weight loss in comparison with prior to agent administration (in words) [1]: weight loss was not observed; Wet thymus weight [1]: significant decreases in wet thymus weight were not observed
CS introduced with 21-Isoleucyl-Triamcinolone Acetonide [CS-Ile-TA] | 100.0 ± 0.0% | 0.0% | 0.3% | 0.5% | 0.7% | 1.1% | 1.4% | 1.8% | 2.1% | followed by CS-βAla-TA and CS-Ile-TA in that order | 0.0% | 0.1% | 0.2% | 0.3% | 0.4% | 0.6% | 0.8% | 0.7% | 0.1%/day | 0.3%/day | Body weight, Before agent administration (%) [1]: 95.7 ± 1.6%; Body weight, Before cystometry (%) [1]: 99.6 ± 1.2%; Body weight, Before induction with hydrochloric acid (%) [1]: 98.9 ± 1.3%; Weight loss in comparison with prior to agent administration (in words) [1]: weight loss was not observed; Wet thymus weight [1]: significant decreases in wet thymus weight were not observed
